# According to patent US20230310542A1, “EPIGENETIC MODIFIERS TO TREAT RETINAL DEGENERATIONS” (priority 2022, published 2023):
# Test: Animal weight gain, mortality and activity during inhibitor treatment
# Procedure: All inhibitors were diluted in 0.9% bacteriostatic sodium chloride (saline).
# During all treatments animal weight gain was monitored.
smiles,measurement,setting,value
C/C=C1\NC(=O)[C@H]2CSSCC/C=C/[C@H](CC(=O)N[C@H](C(C)C)C(=O)N2)OC(=O)[C@H](C(C)C)NC1=O [romidepsin],activity of treated animals,"mouse, in vivo",less active
same,mortality,"romidepsin lower concentrations than 2 mg/kg, rd10 mice",increased mortality
